Structures are written as SMILES.

Chains of the proteins cited; added tags and fusions are not shown. Lines headed by an entry give the natural chain unless they say otherwise; changes in a name come on top. Residues count along the entry.
UniProt Q6PSM0, 1-1272: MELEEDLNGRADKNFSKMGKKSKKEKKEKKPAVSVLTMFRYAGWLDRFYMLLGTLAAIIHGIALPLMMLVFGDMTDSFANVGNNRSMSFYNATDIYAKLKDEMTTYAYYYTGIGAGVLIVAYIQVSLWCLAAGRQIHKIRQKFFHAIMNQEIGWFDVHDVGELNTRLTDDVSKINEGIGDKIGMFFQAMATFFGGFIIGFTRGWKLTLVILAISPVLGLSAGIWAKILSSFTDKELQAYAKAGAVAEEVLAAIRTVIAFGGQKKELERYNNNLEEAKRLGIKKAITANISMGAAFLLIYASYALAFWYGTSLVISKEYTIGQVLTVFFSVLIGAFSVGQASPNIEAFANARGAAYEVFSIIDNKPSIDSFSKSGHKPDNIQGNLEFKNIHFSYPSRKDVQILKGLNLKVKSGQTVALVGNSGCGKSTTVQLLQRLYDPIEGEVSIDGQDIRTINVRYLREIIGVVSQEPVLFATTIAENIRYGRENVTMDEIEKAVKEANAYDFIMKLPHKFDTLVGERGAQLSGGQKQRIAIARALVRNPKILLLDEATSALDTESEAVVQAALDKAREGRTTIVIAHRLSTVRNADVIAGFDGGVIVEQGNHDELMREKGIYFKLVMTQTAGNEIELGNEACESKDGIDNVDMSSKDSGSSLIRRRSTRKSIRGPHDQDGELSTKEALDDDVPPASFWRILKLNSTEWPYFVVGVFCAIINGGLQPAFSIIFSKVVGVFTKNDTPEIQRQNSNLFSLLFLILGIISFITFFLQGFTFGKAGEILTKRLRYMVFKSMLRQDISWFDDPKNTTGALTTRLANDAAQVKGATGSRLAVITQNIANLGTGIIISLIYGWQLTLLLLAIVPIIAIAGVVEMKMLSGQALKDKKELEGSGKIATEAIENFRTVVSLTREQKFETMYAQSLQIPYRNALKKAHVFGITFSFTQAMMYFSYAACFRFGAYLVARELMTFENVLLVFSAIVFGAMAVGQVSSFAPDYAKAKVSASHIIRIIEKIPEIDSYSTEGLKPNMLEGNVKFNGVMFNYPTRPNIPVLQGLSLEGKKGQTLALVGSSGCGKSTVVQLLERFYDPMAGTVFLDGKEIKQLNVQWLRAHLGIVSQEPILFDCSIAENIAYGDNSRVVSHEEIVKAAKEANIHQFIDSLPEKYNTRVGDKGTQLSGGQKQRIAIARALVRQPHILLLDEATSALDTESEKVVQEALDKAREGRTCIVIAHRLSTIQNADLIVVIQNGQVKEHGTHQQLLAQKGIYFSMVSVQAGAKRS
UniProt Q8HZQ6, 1-1283: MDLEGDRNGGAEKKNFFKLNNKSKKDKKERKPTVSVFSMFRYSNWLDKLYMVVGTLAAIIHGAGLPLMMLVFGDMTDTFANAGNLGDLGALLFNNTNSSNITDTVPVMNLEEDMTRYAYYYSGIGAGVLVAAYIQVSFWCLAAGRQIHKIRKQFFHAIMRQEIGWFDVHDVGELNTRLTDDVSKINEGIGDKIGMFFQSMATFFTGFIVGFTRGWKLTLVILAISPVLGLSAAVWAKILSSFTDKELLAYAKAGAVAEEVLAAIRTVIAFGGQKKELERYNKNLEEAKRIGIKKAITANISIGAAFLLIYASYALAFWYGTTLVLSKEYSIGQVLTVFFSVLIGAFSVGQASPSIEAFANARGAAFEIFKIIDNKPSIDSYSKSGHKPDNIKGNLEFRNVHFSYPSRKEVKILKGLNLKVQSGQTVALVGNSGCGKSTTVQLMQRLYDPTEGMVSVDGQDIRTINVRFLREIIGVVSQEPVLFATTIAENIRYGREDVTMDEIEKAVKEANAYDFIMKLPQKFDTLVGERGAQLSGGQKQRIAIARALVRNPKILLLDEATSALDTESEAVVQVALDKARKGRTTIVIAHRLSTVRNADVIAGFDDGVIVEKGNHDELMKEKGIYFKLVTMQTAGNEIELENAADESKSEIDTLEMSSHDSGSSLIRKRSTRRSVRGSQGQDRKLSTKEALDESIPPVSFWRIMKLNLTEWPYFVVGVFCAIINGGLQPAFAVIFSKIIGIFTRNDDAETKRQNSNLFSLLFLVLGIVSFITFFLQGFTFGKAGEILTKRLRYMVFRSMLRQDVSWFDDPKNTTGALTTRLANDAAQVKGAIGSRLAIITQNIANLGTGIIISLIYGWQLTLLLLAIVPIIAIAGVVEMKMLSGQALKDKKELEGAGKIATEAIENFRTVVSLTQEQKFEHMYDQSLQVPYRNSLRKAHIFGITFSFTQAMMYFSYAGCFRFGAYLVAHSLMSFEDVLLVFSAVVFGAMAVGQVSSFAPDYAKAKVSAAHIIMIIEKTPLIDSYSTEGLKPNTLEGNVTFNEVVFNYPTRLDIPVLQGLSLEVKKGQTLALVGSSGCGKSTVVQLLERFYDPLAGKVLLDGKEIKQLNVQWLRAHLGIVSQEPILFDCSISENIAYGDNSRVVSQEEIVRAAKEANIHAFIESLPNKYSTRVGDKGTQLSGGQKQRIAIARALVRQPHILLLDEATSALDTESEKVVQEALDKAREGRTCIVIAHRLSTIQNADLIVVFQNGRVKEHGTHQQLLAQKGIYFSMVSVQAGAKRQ
UniProt Q9UNQ0: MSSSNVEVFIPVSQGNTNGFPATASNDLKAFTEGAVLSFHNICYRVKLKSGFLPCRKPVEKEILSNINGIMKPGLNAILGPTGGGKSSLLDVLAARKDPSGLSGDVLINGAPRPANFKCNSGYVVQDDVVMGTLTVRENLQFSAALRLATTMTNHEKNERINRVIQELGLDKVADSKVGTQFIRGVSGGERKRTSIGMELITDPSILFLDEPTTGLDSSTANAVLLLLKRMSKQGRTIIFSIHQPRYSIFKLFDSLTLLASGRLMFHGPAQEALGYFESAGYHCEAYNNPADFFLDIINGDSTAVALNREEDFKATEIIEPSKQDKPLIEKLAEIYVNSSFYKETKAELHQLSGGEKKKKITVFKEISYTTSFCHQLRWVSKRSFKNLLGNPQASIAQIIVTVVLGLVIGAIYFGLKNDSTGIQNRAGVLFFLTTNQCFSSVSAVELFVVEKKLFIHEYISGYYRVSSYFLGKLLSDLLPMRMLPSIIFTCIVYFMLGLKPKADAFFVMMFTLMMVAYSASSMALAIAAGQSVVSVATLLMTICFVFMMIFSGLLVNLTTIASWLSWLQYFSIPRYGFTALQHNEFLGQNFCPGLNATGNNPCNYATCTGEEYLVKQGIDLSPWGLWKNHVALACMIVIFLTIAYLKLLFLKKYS
UniProt P21447, whole entry: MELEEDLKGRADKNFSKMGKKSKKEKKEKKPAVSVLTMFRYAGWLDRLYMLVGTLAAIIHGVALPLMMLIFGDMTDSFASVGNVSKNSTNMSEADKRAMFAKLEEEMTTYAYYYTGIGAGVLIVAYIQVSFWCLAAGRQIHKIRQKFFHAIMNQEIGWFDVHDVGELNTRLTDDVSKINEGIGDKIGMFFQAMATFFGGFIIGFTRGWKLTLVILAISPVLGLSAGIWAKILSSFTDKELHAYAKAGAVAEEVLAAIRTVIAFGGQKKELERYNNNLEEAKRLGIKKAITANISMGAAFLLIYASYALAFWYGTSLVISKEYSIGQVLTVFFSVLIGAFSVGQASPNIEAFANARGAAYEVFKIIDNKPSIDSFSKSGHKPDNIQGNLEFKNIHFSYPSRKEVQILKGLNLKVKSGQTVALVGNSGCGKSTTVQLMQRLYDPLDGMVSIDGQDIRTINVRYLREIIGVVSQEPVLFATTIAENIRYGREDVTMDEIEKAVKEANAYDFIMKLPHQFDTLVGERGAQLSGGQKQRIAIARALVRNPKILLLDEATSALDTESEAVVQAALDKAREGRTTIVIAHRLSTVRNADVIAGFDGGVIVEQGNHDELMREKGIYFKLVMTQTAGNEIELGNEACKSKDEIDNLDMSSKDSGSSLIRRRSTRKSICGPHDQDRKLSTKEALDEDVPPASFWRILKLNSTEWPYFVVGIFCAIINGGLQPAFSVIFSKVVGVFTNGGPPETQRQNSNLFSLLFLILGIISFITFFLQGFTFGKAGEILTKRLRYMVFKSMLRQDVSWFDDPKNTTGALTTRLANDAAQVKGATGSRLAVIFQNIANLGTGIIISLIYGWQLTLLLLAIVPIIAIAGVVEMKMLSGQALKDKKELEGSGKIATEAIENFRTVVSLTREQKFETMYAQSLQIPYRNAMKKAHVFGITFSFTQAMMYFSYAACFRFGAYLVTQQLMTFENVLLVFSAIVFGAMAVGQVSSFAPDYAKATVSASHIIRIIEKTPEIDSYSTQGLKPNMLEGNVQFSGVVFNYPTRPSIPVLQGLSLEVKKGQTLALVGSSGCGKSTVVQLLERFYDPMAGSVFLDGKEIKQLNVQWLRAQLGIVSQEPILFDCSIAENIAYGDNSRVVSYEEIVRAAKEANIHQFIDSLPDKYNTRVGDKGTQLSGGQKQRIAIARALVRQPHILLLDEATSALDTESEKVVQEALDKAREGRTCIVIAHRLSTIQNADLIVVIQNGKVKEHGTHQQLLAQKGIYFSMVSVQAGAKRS
UniProt P08183, whole entry: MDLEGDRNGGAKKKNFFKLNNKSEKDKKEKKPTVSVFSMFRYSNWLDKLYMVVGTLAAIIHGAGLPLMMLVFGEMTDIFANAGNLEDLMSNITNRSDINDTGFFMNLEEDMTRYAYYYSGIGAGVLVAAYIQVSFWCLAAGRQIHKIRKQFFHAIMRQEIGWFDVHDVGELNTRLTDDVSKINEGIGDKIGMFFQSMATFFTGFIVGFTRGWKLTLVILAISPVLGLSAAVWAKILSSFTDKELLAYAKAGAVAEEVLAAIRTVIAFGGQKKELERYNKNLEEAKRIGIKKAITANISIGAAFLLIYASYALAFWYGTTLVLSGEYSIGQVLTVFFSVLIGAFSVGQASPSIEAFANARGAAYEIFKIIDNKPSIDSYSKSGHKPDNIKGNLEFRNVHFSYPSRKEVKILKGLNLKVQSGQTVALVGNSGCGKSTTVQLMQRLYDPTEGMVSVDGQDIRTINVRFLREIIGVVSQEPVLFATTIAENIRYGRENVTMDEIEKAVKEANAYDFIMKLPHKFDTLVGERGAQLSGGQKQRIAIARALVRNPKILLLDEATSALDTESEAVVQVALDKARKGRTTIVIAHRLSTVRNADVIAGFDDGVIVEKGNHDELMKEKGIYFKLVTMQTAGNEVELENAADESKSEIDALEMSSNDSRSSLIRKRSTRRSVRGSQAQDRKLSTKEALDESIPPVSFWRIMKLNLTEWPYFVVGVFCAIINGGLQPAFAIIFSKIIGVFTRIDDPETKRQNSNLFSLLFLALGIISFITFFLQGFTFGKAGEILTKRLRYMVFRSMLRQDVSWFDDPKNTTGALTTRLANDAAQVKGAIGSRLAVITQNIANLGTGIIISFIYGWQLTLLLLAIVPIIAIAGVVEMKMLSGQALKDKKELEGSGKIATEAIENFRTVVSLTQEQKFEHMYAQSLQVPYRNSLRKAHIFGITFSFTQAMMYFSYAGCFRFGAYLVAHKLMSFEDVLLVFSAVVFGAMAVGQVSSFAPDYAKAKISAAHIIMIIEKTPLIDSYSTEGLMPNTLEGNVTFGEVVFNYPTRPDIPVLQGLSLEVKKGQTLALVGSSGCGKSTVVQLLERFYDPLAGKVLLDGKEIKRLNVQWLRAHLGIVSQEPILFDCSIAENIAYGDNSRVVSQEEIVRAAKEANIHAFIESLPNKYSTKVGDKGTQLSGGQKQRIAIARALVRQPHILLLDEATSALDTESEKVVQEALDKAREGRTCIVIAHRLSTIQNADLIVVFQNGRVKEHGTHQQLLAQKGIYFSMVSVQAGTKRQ

Series [1] has as its target rat Mdr1a (Rattus norvegicus, UniProt Q6PSM0). The experiment in a line: Bidirectional transport assay, efflux ratio in Abcb1KO-MDCKII rMDR1 cells. Particulars: pH 7.4.
Series [2] concerns the target cynomolgus monkey Mdr1 (Macaca fascicularis, UniProt Q8HZQ6). The experiment in a line: Bidirectional transport assay, efflux ratio in Abcb1KO-MDCKII cyMDR1 cells. Particulars: pH 7.4.
A short description of series [3]: Bidirectional transport assay, efflux ratio in Abcb1KO-MDCKII-Mock control cells. Particulars: dog, MDCK, pH 7.4.
Series [4] concerns the target T1, human BCRP (Homo sapiens, UniProt Q9UNQ0). The experiment in a line: in vitro. As to conditions: pH 7.4.
Series [5] deals with mouse Mdr1a (Mus musculus, UniProt P21447). As to conditions: pH 7.4.
In series [6] the target is human MDR1 (Homo sapiens, UniProt P08183). The experiment in a line: Bidirectional transport assay, efflux ratio in Abcb1KO-MDCKII hMDR1 cells. As to conditions: MDCK-MDR1, pH 7.4.
In series [7] the target is T1, human BCRP. The experiment in a line: Bidirectional transport assay, efflux ratio in MDCKII-BCRP cells. As to conditions: pH 7.4.

Turning to `CC(C)CN(C[C@@H](O)[C@H](Cc1ccccc1)NC(=O)O[C@H]1CCOC1)S(=O)(=O)c1ccc(N)cc1` [Amprenavir], the efflux ratio at 120 min, 1 µM turned out to be 36.1 ± 2.46 in series [1]; 24.9 ± 1.15 in series [2]; 0.63 ± 0.03 in series [3]; 4.16 ± 0.37 in series [4]; 31.9 ± 0.96 in series [5].
For `Cc1nc2n(c(=O)c1CCN1CCC(c3noc4cc(F)ccc34)CC1)CCCC2` [Risperidone], the efflux ratio at 120 min, 1 µM was 2.38 ± 1 in series [1]; 3.4 ± 0.52 in series [6]; 0.94 ± 0.13 in series [7]; 0.52 ± 0.04 in series [3]; 2.2 ± 0.31 in series [5].

(Values after paper PMC11207571, “Applicability of MDR1 Overexpressing Abcb1KO-MDCKII Cell Lines for Investigating In Vitro Species Differences and Brain Penetration Prediction” (Pharmaceutics, 2024).)
